Data published in patent US9206198B2, “Inhibitors of the renal outer medullary potassium channel” (Merck Sharp & Dohme Corp., priority 2012, dated 2015).

Protein sequences, listed by entry. Tags and fused reporters are not part of them.
UniProt P48048, whole entry: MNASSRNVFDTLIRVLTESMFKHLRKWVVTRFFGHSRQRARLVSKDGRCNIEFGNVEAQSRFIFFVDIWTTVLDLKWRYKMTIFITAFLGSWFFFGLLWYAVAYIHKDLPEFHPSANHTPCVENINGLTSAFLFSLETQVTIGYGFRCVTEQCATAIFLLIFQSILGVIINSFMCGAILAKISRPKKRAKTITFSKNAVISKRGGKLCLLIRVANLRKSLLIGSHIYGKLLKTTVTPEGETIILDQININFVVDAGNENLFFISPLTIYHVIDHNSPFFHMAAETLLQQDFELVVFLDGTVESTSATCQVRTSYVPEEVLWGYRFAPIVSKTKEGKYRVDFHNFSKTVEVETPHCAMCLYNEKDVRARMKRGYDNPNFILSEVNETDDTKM

How the values were obtained:
Kir1.1 (ROMK1) = Kir1.1 (ROMK1) (Homo sapiens (Human), UniProt P48048); experiment: Electrophysiology Assay (whole cell voltage clamp, IonWorks Quattro); conditions: read-out: Electrophysiology IC50; Chinese hamster ovary cells stably expressing Kir1.1; block during voltage step to 0 mV
hROMK (hKir1.1) = hROMK (hKir1.1) (Homo sapiens (Human), UniProt P48048); experiment: Thallium Flux Assay (ROMK channel functional thallium flux assay, FLIPR-Tetra); format: cell-based; conditions: read-out: Thallium Flux IC50; HEK293 cells stably expressing hROMK

| SMILES | IC50 (Kir1.1 (ROMK1)) [nM] | IC50 (hROMK (hKir1.1)) [nM] |
| --- | --- | --- |
| Cc1c([C@@H](O)CN2CCC3(CC2)CC(=O)N(C2=CC(=O)OC2)C3)ccc2c1COC2=O | 50 | 170 |
| Cc1c([C@@H](O)CN2CCC3(CC2)CCN(C2=CC(=O)OC2C)C3=O)ccc2c1COC2=O (single isomer, unassigned) [12] | 30 | 140 |
| COC1CN(C2=C(C)C(=O)OC2)C(=O)C12CCN(C[C@H](O)c1ccc3c(c1C)COC3=O)CC2 (single isomer, unassigned) [35] |  | 70 |
| CC1=C(N2CC[C@]3(C[C@H]4CC[C@@H](C3)N4C[C@H](O)c3ccc4c(c3C)COC4=O)C2=O)COC1=O |  | 10 |
| Cc1c([C@@H](O)CN2CCC3(CC2)CCN(C2=CC(=O)OC2C)C3=O)ccc2c1COC2=O (single isomer, unassigned) [11] | 20 | 120 |
| CC1=C(N2CCC3(CCN(C[C@H](O)c4ccc5c(c4C)COC5=O)CC3)C2=O)C(C)OC1=O (single isomer, unassigned) [13] | 60 | 490 |
| Cc1c([C@@H](O)CN2CCC3(CC2)CCN(C2=CC(=O)OC2)C3)ccc2c1COC2=O | 30 | 200 |
| CC1=C(N2CC[C@@]3(C[C@H]4CC[C@@H](C3)N4C[C@H](O)c3ccc4c(c3C)COC4=O)C2=O)COC1=O |  | 40 |
| CC1=C(N2CC3(CCN(C[C@H](O)c4ccc5c(c4C)COC5=O)CC3)CC2=O)COC1=O |  | 110 |
| CCC1=C(N2CCC3(CCN(C[C@H](O)c4ccc5c(c4C)COC5=O)CC3)C2=O)COC1=O | 20 | 80 |
| COC1CN(C2=C(C)C(=O)OC2)C(=O)C12CCN(C[C@H](O)c1ccc3c(c1C)COC3=O)CC2 (single isomer, unassigned) [34] |  | 90 |
| CC1=C(N2CCC3(CCN(C[C@H](O)c4ccc5c(c4C)COC5=O)CC3)C2=O)C(C)OC1=O (single isomer, unassigned) [14] | 100 | 380 |
| Cc1c([C@@H](O)CN2[C@@H]3CC[C@H]2C[C@]2(CCN(C4=CC(=O)OC4)C2=O)C3)ccc2c1COC2=O | 4 | 20 |
